Reference: US20100305068A1, “COMPOUNDS AND METHODS FOR MODULATING PROTEIN TRAFFICKING” (priority 2006, published 2010)

Test system: pdr5 ypt1^ts cells
Format: cell-based, yeast
Conditions: Table 2; 6.25 μM compound; 37° C.; background (0 μM) 0.058

**Q.** With NIMODIPINE [reference compound] as the sequence, how does the “optical density, ypt1-ts, 6.25” value read?
**A.** 0.116
